Data taken from US10583093B2.
Some compounds may have been tested in ways that are not shown here.

Experiment: Saturation solubilities of fentanyl in solubility-decreasing additives

Structure (SMILES): CCC(=O)N(c1ccccc1)C1CCN(CCc2ccccc2)CC1
- Saturation solubility (in Diglycerol): <1.5 % by weight
- Saturation solubility (in Dioctylcyclohexane): <1.9 % by weight
- Saturation solubility (in Glycerol): <1.5 % by weight
- Saturation solubility (in Paraffin, liquid): <1.5 % by weight
- Saturation solubility (in Polyethylene glycol 400): 7.5 % by weight
